Article PMC4748418 (Journal of chromatography. A, 2015)

Amino acid sequences for entries named in this document (tags omitted). Residues count along the entry.
UniProt P30926, 22-498: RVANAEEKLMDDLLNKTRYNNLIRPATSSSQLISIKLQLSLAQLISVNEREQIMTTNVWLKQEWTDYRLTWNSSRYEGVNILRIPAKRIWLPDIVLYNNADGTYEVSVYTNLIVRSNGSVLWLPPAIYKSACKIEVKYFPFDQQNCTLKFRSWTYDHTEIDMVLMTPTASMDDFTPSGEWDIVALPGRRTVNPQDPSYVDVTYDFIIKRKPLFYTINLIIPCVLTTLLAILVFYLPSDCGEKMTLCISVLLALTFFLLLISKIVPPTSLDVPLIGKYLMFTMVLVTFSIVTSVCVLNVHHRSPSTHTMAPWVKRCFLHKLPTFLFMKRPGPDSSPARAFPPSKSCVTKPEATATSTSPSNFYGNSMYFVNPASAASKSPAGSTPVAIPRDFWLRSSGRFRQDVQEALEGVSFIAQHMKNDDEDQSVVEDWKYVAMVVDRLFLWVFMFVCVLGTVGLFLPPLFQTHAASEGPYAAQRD
UniProt P32297, 32-505: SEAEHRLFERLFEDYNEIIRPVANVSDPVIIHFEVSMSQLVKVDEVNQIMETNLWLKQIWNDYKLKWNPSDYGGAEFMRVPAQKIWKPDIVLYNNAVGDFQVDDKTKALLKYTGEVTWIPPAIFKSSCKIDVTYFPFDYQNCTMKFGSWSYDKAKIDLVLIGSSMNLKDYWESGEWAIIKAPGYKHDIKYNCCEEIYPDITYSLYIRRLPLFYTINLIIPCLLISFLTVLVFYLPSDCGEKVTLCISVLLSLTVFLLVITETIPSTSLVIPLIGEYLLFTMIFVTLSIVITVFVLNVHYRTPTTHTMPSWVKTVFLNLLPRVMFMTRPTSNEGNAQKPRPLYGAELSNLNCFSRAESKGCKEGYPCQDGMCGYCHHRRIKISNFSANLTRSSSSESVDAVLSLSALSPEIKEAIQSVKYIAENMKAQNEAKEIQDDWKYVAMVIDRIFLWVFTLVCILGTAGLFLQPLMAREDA
UniProt P30532, 23-468: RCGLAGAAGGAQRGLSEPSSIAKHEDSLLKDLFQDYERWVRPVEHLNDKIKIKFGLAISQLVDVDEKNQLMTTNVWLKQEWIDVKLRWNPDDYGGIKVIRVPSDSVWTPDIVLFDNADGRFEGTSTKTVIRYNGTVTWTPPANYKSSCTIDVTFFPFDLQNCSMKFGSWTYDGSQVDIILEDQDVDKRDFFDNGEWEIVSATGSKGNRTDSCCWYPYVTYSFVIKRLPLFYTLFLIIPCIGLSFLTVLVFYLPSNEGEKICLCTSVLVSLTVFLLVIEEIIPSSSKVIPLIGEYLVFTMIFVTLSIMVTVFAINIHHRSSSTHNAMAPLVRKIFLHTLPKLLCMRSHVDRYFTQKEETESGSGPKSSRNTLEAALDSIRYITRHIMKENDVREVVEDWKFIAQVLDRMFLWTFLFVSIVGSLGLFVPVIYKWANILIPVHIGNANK

How the values were obtained:
α3β4 nAChR = α3β4 nAChR (Homo sapiens, UniProt P30926+P32297); test: biochemical
α3β4α5 nAChR = α3β4α5 nAChR (Homo sapiens, UniProt P30532+P30926+P32297); test: biochemical

Q: Which Kd (α3β4 nAChR) does the source give for `CNC1(C)C2CCC(C2)C1(C)C` (centres unmarked) [MCM, Mecamylamine hydrochloride] here?
A: 8.5 µM

Q: What about the Kd (α3β4α5 nAChR) of the same compound?
A: 3.4 µM

Counter-ions that a name gives are not always drawn.
